The values below come from patent US20210322417A1, “GASTRIC CANCER TREATMENTS” (The Jackson Laboratory, priority 2018, published 2021).

One assay has as its system CSK null OE19 cells. In words: CellTiter-Glo cell viability assay, CSK null OE19. Type of assay: cell-based, human. As to conditions: indicated doses of the agent in combination with 0.05 μM Lapatinib, 6 days. The source says: (§1) Viral particles were generated as described above.
(In general: In ATP-based viability assays light output follows the ATP content of the culture.)

The test system of the next assay is HER2-amplified GC. As to conditions: HER2-amplified GC clinical trial data; cited from earlier work.
Another assay concerns PTEN null OE19 cells. Description: CellTiter-Glo cell viability assay, PTEN null OE19. Type of assay: cell-based, human. As to conditions: indicated doses of the agent in combination with 0.05 μM Lapatinib, 6 days.
Excerpt: as §1

Take Trastuzumab: the “effect on cell growth/viability” value in the assay on CSK null OE19 cells and in the assay on PTEN null OE19 cells was “some inhibitory effect” throughout. Besides, the “improvement of overall survival” value in the assay with HER2-amplified GC is 2.7 months.
